Test results from patent publication US6630496B1, “Inhibitors of phospholipase enzymes” (Genetics Institute LLC, priority 1996, dated 2003).

What was measured:
[1] = biological target: T1, cPLA2 (Homo sapiens, UniProt P47712); test: Soluble substrate assay (LysoPC); format: biochemical; details: NA = inhibitory activity not detected; read-out: IC50 (μM) Lyso PC
T1 sequence (P47712 1-749): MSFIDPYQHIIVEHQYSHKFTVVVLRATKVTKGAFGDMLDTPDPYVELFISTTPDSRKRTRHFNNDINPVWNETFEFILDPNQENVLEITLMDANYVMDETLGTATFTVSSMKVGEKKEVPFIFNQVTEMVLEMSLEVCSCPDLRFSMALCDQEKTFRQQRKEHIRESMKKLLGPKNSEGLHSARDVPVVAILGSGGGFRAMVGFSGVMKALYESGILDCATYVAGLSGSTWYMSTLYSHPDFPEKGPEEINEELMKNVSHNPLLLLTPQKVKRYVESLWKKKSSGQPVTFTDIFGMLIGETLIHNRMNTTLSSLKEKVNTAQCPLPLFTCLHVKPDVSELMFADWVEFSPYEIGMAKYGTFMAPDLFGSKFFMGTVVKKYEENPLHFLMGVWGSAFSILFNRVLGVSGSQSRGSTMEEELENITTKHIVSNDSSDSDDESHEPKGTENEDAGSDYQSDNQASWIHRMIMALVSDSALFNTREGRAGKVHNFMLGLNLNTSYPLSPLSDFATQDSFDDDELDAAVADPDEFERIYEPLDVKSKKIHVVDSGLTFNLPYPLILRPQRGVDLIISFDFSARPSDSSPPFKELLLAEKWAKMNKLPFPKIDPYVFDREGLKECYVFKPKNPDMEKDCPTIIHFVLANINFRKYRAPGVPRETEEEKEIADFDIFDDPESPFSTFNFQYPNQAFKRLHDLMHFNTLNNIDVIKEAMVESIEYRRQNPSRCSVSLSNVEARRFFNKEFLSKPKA
Text: (§1) Tables I-VI also report data for the listed compounds in the “LysoPC” assay and the Coumarine assay (see Example 88 below). In the data columns of the tables, assay results are reported as an “IC50” value, which is the concentration of a compound which inhibits 50% of the activity of the phospholipase enzyme in such assay. Where no numerical IC50 value appears, “NA” denotes that inhibitory activity was not detected from such compound in the corresponding assay and a blank box denotes that the compound was not tested in such assay as of the time of filing of the present application.
(b) Soluble Substrate Assay (LysoPC)
1-[^14C]-palmitoyl-2-hydroxyphosphotidyl-choline (57 mCi/mmol) (final concentration 4.4 μM) was dried under a stream of nitrogen. The lipid was resuspended by vortexing 80 mM Hepes pH 7.5, 1 mM EDTA (1.2×final concentration). A typical assay consisted of lipid suspension (85 μl) to which was added consecutively the inhibitor (5 μl in DMSO) and cPLA2, 200 ng in 80 mM Hepes pH 7.5, 2 mM DTT and […]. This assay was conducted by either the manual assay or automated assay protocol described below.

[2] = biological target: T1, cPLA2; test: Coumarine assay (7-hydroxycoumarinyl 6-heptenoate hydrolysis); format: biochemical; details: 60 μM 7-hydroxycoumarinyl 6-heptenoate
Text: as §1
7-hydroxycoumarinyl 6-heptenoate was used as a monomeric substrate for cPLA2 as reported previously (Huang, Z. et al., 1994, Analytical Biochemistry 222, 110-115). Inhibitors were mixed with 200 μL assay buffer (80 mM Hepes, pH 7.5, 1 mM EDTA) containing 60 μM 7-hydroxycoumarinyl 6-heptenoate. The reaction was initiated by adding 4 μg cPLA2 in 50 μL assay buffer. Hydrolysis of the 7-hydroxycoumarinyl 6-heptenoate ester was monitored in a fluorometer by exciting at 360 nm and monitoring emission at 460 nm. Enzyme activity is proportional to the increasein emission at 460 nm per minute. In the presence of a cPLA2 inhibitor, the rate of increase is less.

3-(2-(5-Benzyloxy-1-(4-benzylbenzoyl)indolinyl)methylthioacetamido)benzoic Acid [Example 52]
IC50 [1]: 8 µM
IC50 [2]: 26 µM

Methyl 3-(2-(5-Benzyloxy-1-(4-benzylbenzoyl)indolinyl)methylthioacetamido)benzoate [Example 51]
IC50 [1]: 36 µM
